AlphaSeq binding of Ab-14 light chain variants to a spike HR2 peptide

The measurements come from Li et al. 2023 (doi:10.1038/s41467-023-39022-2) through the FLAb antibody collection.

Antigen: PDVDLGDISGINAS, a 14-residue peptide of the SARS-CoV-2 spike HR2 region.

The variants keep the heavy chain, the linker and the frameworks of Ab-14 (scFv order VH, a (GGGGS)3 linker, VL).
VH: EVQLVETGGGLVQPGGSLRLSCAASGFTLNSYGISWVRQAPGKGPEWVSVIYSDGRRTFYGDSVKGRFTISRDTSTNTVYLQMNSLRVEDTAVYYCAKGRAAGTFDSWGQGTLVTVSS
VL: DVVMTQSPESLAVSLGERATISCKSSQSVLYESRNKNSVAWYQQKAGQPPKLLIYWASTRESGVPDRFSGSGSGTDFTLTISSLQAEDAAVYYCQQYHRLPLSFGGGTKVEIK

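Phage display of a naive human antibody library on the peptide gave the parent. The variants were designed computationally from a first round of random CDR variants and then made and measured. Group labels follow the data file (Ctrl: baseline library sampled from a position-specific scoring matrix, with some repeated check sequences; En: ensemble of fine-tuned language models; GP: Gaussian process model; HC: hill climbing; Gen: genetic algorithm; Gibbs: Gibbs sampling; a sequence that several methods proposed may carry one label only). In AlphaSeq, yeast of one mating type display the scFv and yeast of the other type display the target. The frequency of each diploid, read from paired DNA barcodes, reflects how well the two displayed proteins bind. Read counts were normalised to the haploid input and turned into Kd by a linear fit to BCL2-family pairs of known affinity, for each replicate. The assay was run in six technical replicates.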

Variants are written as CDR1, CDR2 and CDR3 of the light chain (limits as in the source). Parent: KSSQSVLYESRNKNSVA, WASTRES, QQYHRLPLS.
This list holds designs with more than six substitutions.
Values are apparent Kd, the geometric mean of the replicates that gave a signal; lower means stronger binding.
"nd" marks a missing value. The strain was present, yet no cells mated with the target were sequenced in any replicate, which points to weak or no binding.
In the paper, a design with two or fewer of six values counts as a poor binder.

HMSALTLQGMTHRNSVA | QMTTREN | QQYDRLPLA [En_Gen]: 61 nM (5 of 6 replicates).
KLSDVAHFESRKKNSVA | ENSTRES | QQYDHLPLS [En_HC]: 40 nM (5 of 6 replicates).
IVSQLMLWGYHAKNSIA | EAVTRLN | QQYERLPLF [En_Gen]: 1.1 nM (6 of 6 replicates).
KLTEMFQHTSKNKNNIA | ERSTREA | QQYHHLPLS [En_HC]: 24 nM (6 of 6 replicates).
KIMSGTNGEKFQSNSIA | QTSTREE | QQYHRLPLS [En_HC]: 4.3 nM (6 of 6 replicates).
QIQGKLQHGGNQGANVA | QGVESKN | QQYYRLPLT [En_Gibbs]: 48 nM (5 of 6 replicates).
KSSASELYESAAKNSVA | NAMQRMS | QQYHRLPLS [GP_Gibbs]: 570 pM (6 of 6 replicates).
SLEPFEYQIMKDLNNIA | NTQTRAN | QQYMRLPIM [En_Gibbs]: 2.0 nM (6 of 6 replicates).
KVMQEMLYESRMINSVA | NASQRES | QQYHRLPLS [GP_Gibbs]: 360 nM (5 of 6 replicates).
MISNVMNTLTRVGNNVA | DLSEREN | QQYFRLPLS [En_Gen]: 19 nM (5 of 6 replicates).
KLMTSSLYESRMANNVA | AASTREE | QQYHRLPLS [GP_Gibbs]: 17 nM (6 of 6 replicates).
KLSYSELYEDRNKNSVA | NASQREQ | QQYHRLPLS [GP_Gibbs]: 420 pM (6 of 6 replicates).
KIGSTLNQMMHKKNNVA | DLVTREN | QQYHRLPLS [En_Gen]: 2.3 nM (6 of 6 replicates).
KYSQSDEYESRNFNSVA | NASTRSM | QQYHRLPLS [GP_Gibbs]: 1.7 nM (6 of 6 replicates).
KIMQSLNYESFNKNSVA | GQETRGQ | QSYHRLPLS [En_HC]: 23 nM (6 of 6 replicates).
KISQMSNFESTHINAVA | QMSTREE | QQYFRLPLS [En_HC]: 3.4 nM (6 of 6 replicates).
KLSMFHNVESINKSNVA | EMVTREN | QQYDRLPLS [En_HC]: 380 nM (4 of 6 replicates).
QMKMSLLQGIYIKDSVA | QSDIREL | QQYEHLPLS [En_Gibbs]: 13 nM (6 of 6 replicates).
KLSISYLFESLEKQSIA | ENSTREK | QHYHRLPLS [En_HC]: nd (0 of 6 replicates).
KISSLTLYESVQKNNVA | EMSTRPS | QSYHRLPLS [En_HC]: 4.9 nM (6 of 6 replicates).
KCQGSQLYESRNKNAVA | NASTRLD | QQYHRLPLS [GP_Gibbs]: 2.1 nM (6 of 6 replicates).
ALSQSMDMTSRHVNSVA | DLTTREN | QQYHRLPLS [En_HC]: 900 pM (6 of 6 replicates).
KLYQATAMTSRMKNNVA | DLNERER | QQYFRLPLS [En_HC]: 2.3 nM (6 of 6 replicates).
IVSQLMLWGMHHKNSIA | EAEMRLN | QQYERLPLF [En_Gen]: 5.2 nM (6 of 6 replicates).
KLSQSNGYEDRNKNSVA | SASQRLM | QQYHRLPLS [GP_Gibbs]: 410 pM (6 of 6 replicates).
QIYQAMHTLSQMKDNVA | DVNERGQ | QQYYRLPLS [En_Gen]: 9.5 nM (6 of 6 replicates).
QTTAFYQHGHDQNQAMA | DVTMRDQ | QQYSRLPLS [En_Gibbs]: 1.7 nM (6 of 6 replicates).
KLIQSVAMSSRNKDSIA | DNSTRFY | QQYHRLPLS [En_HC]: 8.1 nM (6 of 6 replicates).
KLSQSGLYEMRNTNSVA | QASQRLQ | QQYHRLPLS [GP_Gibbs]: 1.6 nM (6 of 6 replicates).
IISGSMLVESRNKNSVA | NAELREY | QHYDRLPLS [En_HC]: 9.1 nM (6 of 6 replicates).
IVSQLMLWGWQAKNSIA | EAQTRLN | QQYDRLPLF [En_Gen]: nd (0 of 6 replicates).
TLTQSVGMESHNKNSVA | DLSNRGQ | QQYHRLPLS [En_HC]: 3.4 nM (6 of 6 replicates).
KLEDSNSWHLRGTSAVA | QASTRAA | QQYQRLPLL [En_Gibbs]: 1.4 nM (6 of 6 replicates).
KLWESVLGESRNWNAVA | SASTREE | QQYHRLPLS [GP_Gibbs]: 1.9 nM (6 of 6 replicates).
MISNVMNSLTHTGNNVA | DLQEREE | QQYFRLPLS [En_Gen]: 34 nM (6 of 6 replicates).
KVDQSVLYYSLNKNSVA | AASLRES | QQYSRLPLS [Ctrl]: 1.6 nM (6 of 6 replicates).

For reference, 4 entries of the list once more:

Variant QTTAFYQHGHDQNQAMA | DVTMRDQ | QQYSRLPLS [En_Gibbs] showed 1.7 nM (6 of 6 replicates).
Variant HMSALTLQGMTHRNSVA | QMTTREN | QQYDRLPLA [En_Gen] showed 61 nM (5 of 6 replicates).
Variant IVSQLMLWGMHHKNSIA | EAEMRLN | QQYERLPLF [En_Gen] showed 5.2 nM (6 of 6 replicates).
Variant QMKMSLLQGIYIKDSVA | QSDIREL | QQYEHLPLS [En_Gibbs] showed 13 nM (6 of 6 replicates).

Three control strains display no target. For all light chain designs, 4% of the pairings with them gave a signal, with a median of 430 nM and one signal in twenty below 38 nM, so weak values seen in few replicates may be background.
Values of this round are not directly comparable with the first-round values of the same sequences.
Of ten entries with the parent sequence, four were seen in most replicates (averages 2.2 nM to 240 nM), three in one and three in none, so single entries are noisy.